# Values quoted from earlier work in patent publication US20080261984A1, “Use of S,S-Reboxetine in the Treatment of Pain” (Pfizer Inc., priority 2004, published 2008).
# By UniProt entry, the sequences of proteins in these tests, tags left out.
# UniProt P31645, whole entry: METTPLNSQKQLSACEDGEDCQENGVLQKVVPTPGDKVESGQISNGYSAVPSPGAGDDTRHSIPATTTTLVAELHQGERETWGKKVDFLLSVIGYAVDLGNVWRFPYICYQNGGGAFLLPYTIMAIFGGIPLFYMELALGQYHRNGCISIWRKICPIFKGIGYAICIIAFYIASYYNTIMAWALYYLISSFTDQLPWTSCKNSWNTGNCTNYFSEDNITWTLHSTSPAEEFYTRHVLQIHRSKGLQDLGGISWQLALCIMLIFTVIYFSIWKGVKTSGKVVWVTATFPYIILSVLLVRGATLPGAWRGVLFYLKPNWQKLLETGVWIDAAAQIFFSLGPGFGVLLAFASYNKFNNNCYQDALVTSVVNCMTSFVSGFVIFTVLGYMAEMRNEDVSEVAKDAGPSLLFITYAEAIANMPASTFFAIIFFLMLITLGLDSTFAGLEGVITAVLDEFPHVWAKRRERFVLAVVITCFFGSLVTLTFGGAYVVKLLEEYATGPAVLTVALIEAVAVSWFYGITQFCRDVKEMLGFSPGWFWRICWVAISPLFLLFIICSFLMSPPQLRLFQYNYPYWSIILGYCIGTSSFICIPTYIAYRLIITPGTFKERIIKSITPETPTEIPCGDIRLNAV
# Biological target: serotonin reuptake (Homo sapiens, UniProt P31645)
# Conditions: cited from earlier work
smiles,measurement,value
"CCOc1ccccc1O[C@@H](c1ccccc1)[C@@H]1CNCCO1 [(S,S)-reboxetine]",serotonin reuptake inhibitory activity,only marginal
